Amino acid sequences for entries named in this document (tags omitted). Residues count along the entry.
UniProt P78536, 215-474: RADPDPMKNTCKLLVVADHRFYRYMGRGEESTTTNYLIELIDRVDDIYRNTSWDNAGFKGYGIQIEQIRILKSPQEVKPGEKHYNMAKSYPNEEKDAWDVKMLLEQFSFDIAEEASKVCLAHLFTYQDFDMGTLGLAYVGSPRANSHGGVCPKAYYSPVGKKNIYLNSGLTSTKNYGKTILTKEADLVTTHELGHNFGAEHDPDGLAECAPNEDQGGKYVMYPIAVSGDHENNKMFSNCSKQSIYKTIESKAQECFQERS

According to paper PMC12838881, “Engineering Single-Chain Antibody Fragment (scFv) Variants Targeting A Disintegrin and Metalloproteinase-17 (ADAM-17)” (Biomolecules, 2025):

B1: SynAb-A4 scFv displayed on yeast (scFv, V domains shown)
VH: EVQLVESGGGLVKPGGSLRLSCAASGFTFSNAWMSWVRQAPGKGLEWVGRIKSKTDGGTTDYAAPVKGRFTISRDDSKNTLYLQMNSLKTEDTAVYYCARPTSYYYFDYWGQGTLVTVSS
VL: [about 100 residues left out]FGPGTKVDIK
notes: light chain variable domain as printed; glycine-rich peptide linker between VL and VH; heavy chain variable domain as printed; CDR-H3 PTSYYY; VL-VH orientation; The printed CDR-H3 has six residues, while the text speaks of 7, 9 and 11; source: yeast surface display, S. cerevisiae RJY100, pCTCON2 vector; not shown: Aga2p, N-terminal, kept
B2: SynAb-A10 scFv displayed on yeast (scFv, V domains shown)
VH: EVQLVESGGGLVKPGGSLRLSCAASGFTFSNAWMSWVRQAPGKGLEWVGRIKSKTDGGTTDYAAPVKGRFTISRDDSKNTLYLQMNSLKTEDTAVYYCARTYASTPMLDFDYWGQGTLVTVSS
VL: [about 100 residues left out]FGPGTKVDIK
notes: light chain variable domain as printed; glycine-rich peptide linker between VL and VH; heavy chain variable domain as printed; CDR-H3 TYASTPMLD; VL-VH orientation; source: yeast surface display, S. cerevisiae RJY100, pCTCON2 vector; not shown: Aga2p, N-terminal, kept

Molecular target: T1, a disintegrin and metalloproteinase-17 catalytic domain (6xHis-ADAM-17cd) (UniProt P78536)
T1 construct: ADAM-17 (TACE), catalytic domain; also called TACE; tumor necrosis factor-α-converting enzyme; source: bought: Enzo Life Sciences
Assay: flow cytometry on cells; scFv variants or TIMP-3 displayed on yeast; soluble 6xHis-ADAM-17cd or MMP-9cd at 100 nM (legend and results; the methods say 150 nM); PBSA pH 7.4; binding read with anti-6xHis Alexa Fluor 647, expression with anti-c-Myc and Alexa Fluor 488; median binding normalised to expression
Conditions: one partner purified

Binder	binding result
B1	binds
B2	binds
